Target: Tyrosine-protein kinase BTK (Homo sapiens, UniProt Q06187)
Experiment: Inhibition of human full-length BTK expressed in Sf9 cells using FAM-Srctide peptide as substrate after 60 mins by TR-FRET Assay

Protein sequences, listed by entry. Tags and fused reporters are not part of them. Lines headed by an entry give the natural chain unless they say otherwise; changes in a name come on top.
UniProt Q06187: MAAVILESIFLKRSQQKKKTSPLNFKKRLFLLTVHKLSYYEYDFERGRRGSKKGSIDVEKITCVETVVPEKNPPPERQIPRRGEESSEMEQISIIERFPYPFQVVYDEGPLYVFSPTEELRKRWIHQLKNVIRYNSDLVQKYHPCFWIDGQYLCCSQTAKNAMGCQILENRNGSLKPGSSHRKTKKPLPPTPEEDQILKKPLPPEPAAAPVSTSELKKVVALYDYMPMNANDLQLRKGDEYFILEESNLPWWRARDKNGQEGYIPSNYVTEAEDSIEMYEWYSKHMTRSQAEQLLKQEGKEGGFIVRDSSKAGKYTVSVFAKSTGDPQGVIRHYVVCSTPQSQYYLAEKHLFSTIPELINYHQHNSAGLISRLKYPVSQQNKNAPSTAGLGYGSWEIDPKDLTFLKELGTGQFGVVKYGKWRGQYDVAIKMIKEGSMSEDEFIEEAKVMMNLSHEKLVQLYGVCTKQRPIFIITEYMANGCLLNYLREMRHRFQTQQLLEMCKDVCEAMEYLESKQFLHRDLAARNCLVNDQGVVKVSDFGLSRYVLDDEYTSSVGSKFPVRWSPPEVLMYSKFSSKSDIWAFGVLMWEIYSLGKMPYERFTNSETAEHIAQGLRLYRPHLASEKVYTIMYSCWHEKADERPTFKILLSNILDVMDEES

- IC50: 1.93 nM
Compound: Cc1ccccc1Nc1nc2cc(F)c(N(C)C(=O)/C=C/CN(C)C)cc2n2cncc12

From ChEMBL document CHEMBL1914368, “Imidazo[1,5-a]quinoxalines as irreversible BTK inhibitors for the treatment of rheumatoid arthritis” (Bioorg Med Chem Lett, 2011)
